Experimental data from patent US20120039957A1, “OPTIMIZED NIACIN COMPOSITIONS IN PHARMACEUTICAL PRODUCTS” (ACURA PHARMACEUTICALS, INC., priority 2010, published 2012).

increase of kinetic solubility relative to reference after 24 hours: 50%
Structure (SMILES): O=C(O)c1cccnc1 [micronized niacin, niacin]
